Results reported in patent US7332631B2, “Fc receptor modulating compounds and compositions” (Trillium Therapeutics Inc., priority 2002, dated 2008).

Protein sequences, listed by entry. Tags and fused reporters are not part of them. Residues count along the entry.
UniProt P12318, 34-317 limits assumed: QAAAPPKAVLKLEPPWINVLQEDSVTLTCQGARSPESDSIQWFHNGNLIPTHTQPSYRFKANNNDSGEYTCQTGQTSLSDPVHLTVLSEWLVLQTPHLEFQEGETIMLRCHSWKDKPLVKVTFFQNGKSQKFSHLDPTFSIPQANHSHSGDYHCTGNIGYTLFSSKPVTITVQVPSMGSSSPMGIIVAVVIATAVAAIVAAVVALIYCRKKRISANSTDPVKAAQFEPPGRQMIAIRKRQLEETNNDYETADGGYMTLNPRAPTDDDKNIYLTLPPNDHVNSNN

Molecular target: FcγRIIa (Homo sapiens, UniProt P12318)
Assay: FACS assay of activation of human platelets by heat aggregated IgG (HAGG), P-Selectin expression
Type: cell-based
Conditions: read-out: Concentration at 50% inhibition of platelet activation by HAGG; washed human platelets, HAGG as agonist; several values in a cell = repeat determinations; '(ICnn)' after a '<' bound = inhibition level at that concentration

SMILES: O=C(O)c1cc2c(c([N+](=O)[O-])c1)-c1c(cc([N+](=O)[O-])cc1[N+](=O)[O-])C2=O
- IC50: < 140 µM
